In US20230257465A1:

Experiments:
[1] = molecular target: PD-L1 on PD-L1 aAPC/CHO-K1 cells (UniProt Q9NZQ7); experiment: cell-based or functional assay
PDL1-ECD-His protein [2] = molecular target: PDL1-ECD-His protein (UniProt Q9NZQ7); experiment: ELISA, PDL1-ECD-His coated, HRP anti-human Fc detection
PDL1-ECD-His protein [3] = molecular target: PDL1-ECD-His protein (UniProt Q9NZQ7); experiment: SPR, Biacore 8K, antibody captured on Protein A, PDL1-His as analyte
PD-L1 on N87-PDL1 cells = PD-L1 on N87-PDL1 cells (UniProt Q9NZQ7); experiment: flow cytometry (FACS) on N87-PDL1 cells
PDL1-ECD-hFc protein = PDL1-ECD-hFc protein (UniProt Q9NZQ7); experiment: bispecific ELISA for simultaneous binding of PD-L1 and EGFR; PDL1-ECD-hFc coated

| IC50, PD-1/PD-L1 Blockade Bioassay (luminescence) [1] [pM] | EC50 (PDL1-ECD-His protein [2]) [pM] | Kd (PDL1-ECD-His protein [3]) [pM] | EC50 (PD-L1 on N87-PDL1 cells) [pM] | EC50 (PDL1-ECD-hFc protein) [pM] | Substance |
| --- | --- | --- | --- | --- | --- |
| 1060 | 110 | 965 | – | – | anti-PDL1×EGFR BsAb1 (bispecific antibody) |
| – | – | – | 160 | 660 | anti-PDL1×EGFR BsAb1 (bispecific antibody; other documents disagree on this pair) |
| 1210 | 110 | – | – | – | anti-PDL1×EGFR BsAb2 (bispecific antibody) |
| – | – | – | 220 | 630 | anti-PDL1×EGFR BsAb2 (bispecific antibody; other documents disagree on this pair) |
